From CN116178540A (SANYOU BIO INC, dated 2023) come the findings set out here.

Protein sequences, listed by entry. Tags and fused reporters are not part of them. Chains listed by the source or under a name are the forms on record and can include a tag or linker.
UniProt O15123, other isoform, or with tags, fused parts or gaps limits assumed: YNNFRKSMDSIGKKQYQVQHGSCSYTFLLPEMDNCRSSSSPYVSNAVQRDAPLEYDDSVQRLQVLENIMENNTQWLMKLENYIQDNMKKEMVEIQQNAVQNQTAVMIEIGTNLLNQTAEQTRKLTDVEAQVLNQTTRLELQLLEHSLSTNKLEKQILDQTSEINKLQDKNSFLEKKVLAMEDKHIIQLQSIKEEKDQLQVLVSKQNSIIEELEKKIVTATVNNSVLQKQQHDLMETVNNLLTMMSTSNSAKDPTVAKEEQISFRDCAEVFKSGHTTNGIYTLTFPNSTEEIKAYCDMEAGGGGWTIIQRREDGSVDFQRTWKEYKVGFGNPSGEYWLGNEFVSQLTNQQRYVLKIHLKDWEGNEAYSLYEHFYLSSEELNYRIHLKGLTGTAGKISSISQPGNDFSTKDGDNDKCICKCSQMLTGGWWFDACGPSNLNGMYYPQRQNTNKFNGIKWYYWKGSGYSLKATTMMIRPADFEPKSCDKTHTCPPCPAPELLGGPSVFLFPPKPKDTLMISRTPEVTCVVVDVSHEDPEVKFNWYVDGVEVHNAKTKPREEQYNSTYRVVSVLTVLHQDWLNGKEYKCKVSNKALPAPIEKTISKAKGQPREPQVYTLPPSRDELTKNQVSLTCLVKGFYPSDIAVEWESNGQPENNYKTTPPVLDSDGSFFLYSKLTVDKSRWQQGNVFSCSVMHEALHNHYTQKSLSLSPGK

Assay [1] concerns the target T1, hANG2-Fc (human, UniProt O15123 19-496, limits assumed, biotin-labelled in the blocking assays (sites not given)). Put plainly: cell-based or functional assay.
Assay [2] addresses T1, hANG2-Fc. Put plainly: FACS competition, hANG2-Fc-biotin premixed with titrated antibody, binding to hTIE2-HEK293 cells.
For assay [3], the target named is T1, hANG2-Fc. The assay is described as follows: competition ELISA, hTIE2 ECD-Fc coated, biotinylated hANG2-Fc (4 μg/mL) premixed with titrated antibody. Background: In an ELISA, binding on a coated surface is turned into a signal by an enzyme label.

B1: 抗体78A14 (antibody, V domains shown)
VH: EVQLLESGGGVVQPGRSLRLSCAASGFTFNVYGMHWVRQAPGKGLEWVAVISYDGSNKYYADSVKGRFTISRDNSKNTLYLQMNSLRAEDTAVYYCAKATLDGYTAGYYYGMDVWGQGTTVTVSS
VL: EIVLTQSPATLSLSPGERATLSCRASQSVSSYLAWYQQKPGQAPRLLIYGPSNRATGIPDRFSGGGSGTDFTLTISRLEPEDFAVYYCQHYGVSQHTFGQGTKLEIKR
For orientation: IC50 means the midpoint of a concentration-inhibition curve. Read a high IC50 as a need for much substance. As for B1, the “对TIE2磷酸化的抑制活性 IC50 (hTIE2-HEK293 cells, phospho-Tie-2 ELISA)” value in the assay with hANG2-Fc [1] amounted to 7.31 µg/mL. Also, the half-maximal inhibitory concentration (IC50) is 0.265 µg/mL with hANG2-Fc [2] and 0.631 µg/mL with hANG2-Fc [3].
